Values of other authors in patent US20250135049A1, “Methods for Biological Material Labeling and Medical Imaging” (Mayo Foundation for Medical Education and Research, priority 2021, published 2025).

System: mouse melanoma, mouse dendritic cells and human mesenchymal stem cells
Conditions: 7 days-post radiolabeling; Ref. 2; cited from earlier work

[^89Zr] zirconium-p-isothiocyanatobenzyl-desferrioxamine [[^89Zr] Zr-DBN]
efflux of free ^89Zr overtime: insignificant efflux
